This is an account of results in ChEMBL document CHEMBL6134891, “Thienopyrimidinone Derivatives as a GluN2B/C/D Biased, Positive Allosteric Modulator of the N-Methyl-d-Aspartate Receptor” (J Med Chem, 2025).

The chains behind the UniProt entries cited, without tags or fusion partners. Where a name states a change or a piece, a line headed by the entry shows the natural chain unless it says otherwise.
UniProt Q62645, whole entry: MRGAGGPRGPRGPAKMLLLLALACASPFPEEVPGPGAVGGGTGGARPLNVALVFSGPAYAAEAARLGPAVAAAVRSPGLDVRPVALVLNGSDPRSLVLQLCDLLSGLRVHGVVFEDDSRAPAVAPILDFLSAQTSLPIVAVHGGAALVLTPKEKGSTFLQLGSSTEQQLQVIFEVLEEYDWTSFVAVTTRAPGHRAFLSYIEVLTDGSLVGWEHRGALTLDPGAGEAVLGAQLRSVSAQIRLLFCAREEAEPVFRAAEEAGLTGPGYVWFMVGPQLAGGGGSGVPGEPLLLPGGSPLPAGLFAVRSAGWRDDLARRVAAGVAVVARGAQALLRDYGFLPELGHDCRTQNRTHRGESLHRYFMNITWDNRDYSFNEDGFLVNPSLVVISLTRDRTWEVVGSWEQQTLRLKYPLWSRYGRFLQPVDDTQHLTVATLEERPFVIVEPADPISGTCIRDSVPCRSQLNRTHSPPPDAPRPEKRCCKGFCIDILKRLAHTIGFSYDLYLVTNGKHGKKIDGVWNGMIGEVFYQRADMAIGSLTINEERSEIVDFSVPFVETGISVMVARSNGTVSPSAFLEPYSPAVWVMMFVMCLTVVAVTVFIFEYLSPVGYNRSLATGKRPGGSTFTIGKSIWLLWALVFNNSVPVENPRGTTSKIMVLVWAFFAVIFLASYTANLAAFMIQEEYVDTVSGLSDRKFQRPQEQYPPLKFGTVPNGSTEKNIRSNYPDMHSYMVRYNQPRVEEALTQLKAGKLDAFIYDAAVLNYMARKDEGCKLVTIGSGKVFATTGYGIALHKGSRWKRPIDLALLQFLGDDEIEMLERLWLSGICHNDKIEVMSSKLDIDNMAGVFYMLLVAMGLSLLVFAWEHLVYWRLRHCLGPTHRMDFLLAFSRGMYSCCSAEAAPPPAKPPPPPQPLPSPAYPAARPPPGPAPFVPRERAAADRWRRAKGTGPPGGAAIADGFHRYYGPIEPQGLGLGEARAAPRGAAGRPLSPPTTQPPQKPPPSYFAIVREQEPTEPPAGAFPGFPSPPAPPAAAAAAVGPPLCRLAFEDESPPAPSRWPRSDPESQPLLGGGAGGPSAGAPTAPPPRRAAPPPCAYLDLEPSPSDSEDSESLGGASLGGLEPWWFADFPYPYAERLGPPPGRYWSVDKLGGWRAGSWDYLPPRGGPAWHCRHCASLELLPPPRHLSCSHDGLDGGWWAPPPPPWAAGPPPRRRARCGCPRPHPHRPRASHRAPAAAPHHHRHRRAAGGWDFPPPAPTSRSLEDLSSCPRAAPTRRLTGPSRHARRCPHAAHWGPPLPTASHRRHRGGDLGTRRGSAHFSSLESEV
UniProt Q00960, whole entry, looked up: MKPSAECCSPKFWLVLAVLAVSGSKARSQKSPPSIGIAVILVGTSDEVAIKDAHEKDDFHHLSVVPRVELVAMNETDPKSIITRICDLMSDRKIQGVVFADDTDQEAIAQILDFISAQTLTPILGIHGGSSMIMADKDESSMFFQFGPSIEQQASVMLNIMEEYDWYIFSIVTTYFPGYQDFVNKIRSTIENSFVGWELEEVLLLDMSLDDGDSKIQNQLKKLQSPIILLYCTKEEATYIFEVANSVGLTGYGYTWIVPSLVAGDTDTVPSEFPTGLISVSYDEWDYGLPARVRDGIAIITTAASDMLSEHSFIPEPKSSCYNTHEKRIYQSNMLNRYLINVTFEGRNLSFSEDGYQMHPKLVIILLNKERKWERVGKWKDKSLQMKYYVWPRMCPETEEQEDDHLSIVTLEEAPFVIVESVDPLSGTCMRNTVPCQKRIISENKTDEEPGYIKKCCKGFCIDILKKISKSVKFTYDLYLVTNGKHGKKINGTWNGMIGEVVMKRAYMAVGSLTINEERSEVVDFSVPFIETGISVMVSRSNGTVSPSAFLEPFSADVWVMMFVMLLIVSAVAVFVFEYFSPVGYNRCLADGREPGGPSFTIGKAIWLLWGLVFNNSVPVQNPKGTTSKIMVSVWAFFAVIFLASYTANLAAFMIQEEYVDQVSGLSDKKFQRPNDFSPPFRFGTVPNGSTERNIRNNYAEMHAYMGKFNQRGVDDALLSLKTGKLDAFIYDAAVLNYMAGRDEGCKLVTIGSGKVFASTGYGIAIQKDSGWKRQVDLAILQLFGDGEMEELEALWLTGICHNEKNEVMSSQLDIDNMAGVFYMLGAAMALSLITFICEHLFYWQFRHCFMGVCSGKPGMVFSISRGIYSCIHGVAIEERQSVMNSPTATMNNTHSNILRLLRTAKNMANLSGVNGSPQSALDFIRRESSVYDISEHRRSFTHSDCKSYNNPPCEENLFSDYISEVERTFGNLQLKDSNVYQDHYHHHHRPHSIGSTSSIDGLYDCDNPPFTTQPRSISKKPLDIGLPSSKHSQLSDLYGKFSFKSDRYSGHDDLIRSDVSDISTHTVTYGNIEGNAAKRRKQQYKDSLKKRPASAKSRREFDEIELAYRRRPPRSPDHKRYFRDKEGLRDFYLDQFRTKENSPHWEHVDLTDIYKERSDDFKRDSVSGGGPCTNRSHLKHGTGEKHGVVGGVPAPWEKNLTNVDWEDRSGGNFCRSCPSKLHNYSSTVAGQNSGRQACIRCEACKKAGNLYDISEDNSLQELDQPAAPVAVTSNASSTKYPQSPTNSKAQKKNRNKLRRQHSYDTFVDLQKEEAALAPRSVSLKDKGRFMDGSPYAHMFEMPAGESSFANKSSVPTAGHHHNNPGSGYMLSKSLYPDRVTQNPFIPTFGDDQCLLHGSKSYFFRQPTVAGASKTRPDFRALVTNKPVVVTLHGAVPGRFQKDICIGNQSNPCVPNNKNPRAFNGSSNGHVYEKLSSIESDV
UniProt Q00961: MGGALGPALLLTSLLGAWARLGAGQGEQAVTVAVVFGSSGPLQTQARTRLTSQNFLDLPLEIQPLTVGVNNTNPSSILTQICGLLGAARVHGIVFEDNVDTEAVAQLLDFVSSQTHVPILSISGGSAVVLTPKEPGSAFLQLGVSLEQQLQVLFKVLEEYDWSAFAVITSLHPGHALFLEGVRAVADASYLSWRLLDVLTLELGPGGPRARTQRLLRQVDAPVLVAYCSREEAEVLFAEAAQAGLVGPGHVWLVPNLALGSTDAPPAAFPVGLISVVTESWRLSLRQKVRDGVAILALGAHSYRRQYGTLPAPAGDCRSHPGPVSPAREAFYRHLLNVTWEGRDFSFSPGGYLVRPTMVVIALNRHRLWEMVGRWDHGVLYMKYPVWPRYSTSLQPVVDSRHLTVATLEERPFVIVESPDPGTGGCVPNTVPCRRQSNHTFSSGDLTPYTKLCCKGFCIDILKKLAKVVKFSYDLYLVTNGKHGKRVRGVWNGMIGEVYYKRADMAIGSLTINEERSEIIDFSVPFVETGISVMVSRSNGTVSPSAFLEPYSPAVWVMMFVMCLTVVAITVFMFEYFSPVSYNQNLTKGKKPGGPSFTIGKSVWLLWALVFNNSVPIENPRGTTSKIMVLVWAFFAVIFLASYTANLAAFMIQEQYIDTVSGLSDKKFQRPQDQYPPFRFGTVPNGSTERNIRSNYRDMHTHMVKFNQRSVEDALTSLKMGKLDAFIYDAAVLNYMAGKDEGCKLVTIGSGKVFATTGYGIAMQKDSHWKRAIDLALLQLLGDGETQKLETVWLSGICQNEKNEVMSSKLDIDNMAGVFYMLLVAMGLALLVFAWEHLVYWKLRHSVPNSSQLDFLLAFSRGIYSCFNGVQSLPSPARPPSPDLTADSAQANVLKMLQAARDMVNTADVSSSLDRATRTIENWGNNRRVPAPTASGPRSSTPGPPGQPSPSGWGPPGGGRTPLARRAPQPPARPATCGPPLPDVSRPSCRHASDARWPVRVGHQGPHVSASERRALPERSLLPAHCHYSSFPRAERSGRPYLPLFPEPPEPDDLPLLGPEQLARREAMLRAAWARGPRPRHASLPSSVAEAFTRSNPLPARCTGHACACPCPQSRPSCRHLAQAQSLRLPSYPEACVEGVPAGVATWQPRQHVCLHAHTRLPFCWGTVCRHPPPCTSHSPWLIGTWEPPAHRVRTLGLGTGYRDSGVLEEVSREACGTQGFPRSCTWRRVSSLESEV

Format in all cases: cell-based
Holding throughout (settings): Oocyte, filed as positive allosteric modulator

Assay [1] concerns the target Glutamate receptor ionotropic, NMDA 2D (Rattus norvegicus) (UniProt Q62645).
Assay [2] has as its target Glutamate receptor ionotropic, NMDA 2B (Rattus norvegicus) (UniProt Q00960).
Assay [3] has as its target Glutamate receptor ionotropic, NMDA 2C (Rattus norvegicus) (UniProt Q00961).

As a reminder, the Emax is the maximal effect, on the per cent scale that the assay sets. Consider `Cc1sc2ncn(CC(=O)N3CC[C@H](F)C3)c(=O)c2c1-c1cccc(Br)c1`, for which the Emax was 2310% in assay [1], 616% in assay [2] and 1130% in assay [3].

Regarding `Cc1sc2ncn(CC(=O)N3CCC[C@H]3C)c(=O)c2c1-c1cccc(Br)c1`, the Emax in assay [1] was 379%; in assay [2], 392%; in assay [3], 427%.

Consider `Cc1sc2ncn(CC(=O)N3CC(C)(F)C3)c(=O)c2c1-c1ccc(F)c(C(F)(F)F)c1`, for which the values for the maximal response (Emax) in assay [1], in assay [2] and in assay [3] were 1380%, 216% and 702%, respectively.

In the case of `Cc1sc2ncn(CC(=O)N3CCC(C)C3)c(=O)c2c1-c1cccc(Br)c1` (stereo not drawn), the Emax in assay [1] was found to be 1350%; in assay [2], 221%; in assay [3], 725%.

As to `Cc1sc2ncn(CC(=O)N3CCC(C)(F)C3)c(=O)c2c1-c1cccc(Br)c1` (stereo not drawn), the maximum response (Emax) in assay [1] was 1320%; in assay [2] it was 278%; in assay [3], 877%.

Take `Cc1sc2ncn(CC(=O)N3CC(C)(F)C3)c(=O)c2c1-c1ccc(F)c(Br)c1`: the Emax in assay [1] is 1350%; in assay [2] it was 251%; in assay [3] it was 386%.

As for `Cc1sc2ncn(CC(=O)N3CC(C)(C)C3)c(=O)c2c1-c1cccc(Br)c1`, the Emax was determined as 640% in assay [1], 254% in assay [2] and 418% in assay [3].

`Cc1sc2ncn(CC(=O)N3CC(C)(F)C3)c(=O)c2c1-c1ccc2ccccc2c1`: the Emax was 1980% in assay [1], 531% in assay [2] and 721% in assay [3].

Turning to `Cc1sc2ncn(CC(=O)N3CC[C@@H](F)C3)c(=O)c2c1-c1cccc(Br)c1`, the maximal response (Emax) in assay [1] amounted to 560%; in assay [2] it was 370%; in assay [3], 522%.

Consider `Cc1sc2ncn(CC(=O)N3CC(C)(F)C3)c(=O)c2c1-c1cccc(Cl)c1F`, for which the Emax came to 1320% in assay [1], 306% in assay [2] and 930% in assay [3].

As for `Cc1sc2ncn(CC(=O)N3CC(C)C3)c(=O)c2c1-c1cccc(Br)c1`, the figures for the Emax in assay [1], in assay [2] and in assay [3] were 614%, 236% and 750%, respectively.

`Cc1sc2ncn(CC(=O)N3CC(C)(F)C3)c(=O)c2c1-c1ccc(F)c(C#N)c1`: the Emax is 1750% in assay [1], 346% in assay [2] and 1200% in assay [3].

For `Cc1sc2ncn(CC(=O)N3CCC3)c(=O)c2c1-c1cccc(Br)c1`, the maximal response (Emax) was determined as 505% in assay [1], 310% in assay [2] and 301% in assay [3].

For `Cc1sc2ncn(CC(=O)N3CC(C)(F)C3)c(=O)c2c1-c1cccc(Br)c1`, the Emax in assay [1] turned out to be 1350%; in assay [2] it was 350%; in assay [3], 774%.

Consider `C#CC1(F)CN(C(=O)Cn2cnc3sc(C)c(-c4cccc(Br)c4)c3c2=O)C1`, for which the Emax in assay [1] is 100%; in assay [2], 106%; in assay [3], 91%.

As to `Cc1sc2ncn(CC(=O)N3CC[C@@H](O)C3)c(=O)c2c1-c1cccc(Br)c1`, the Emax stood at 103% in assay [1], 103% in assay [2] and 110% in assay [3].

`CCCC1(F)CN(C(=O)Cn2cnc3sc(C)c(-c4cccc(Br)c4)c3c2=O)C1`: the Emax in assay [1] was determined as 343%; in assay [2], 153%; in assay [3], 234%.

For the molecule `Cc1sc2ncn(CC(=O)N3CC(C)(F)C3)c(=O)c2c1-c1cccc(Cl)c1`, the values for the Emax in assay [1], in assay [2] and in assay [3] were 1420%, 303% and 683%, respectively.

Turning to `Cc1sc2ncn(CC(=O)N3CCC[C@@H]3C)c(=O)c2c1-c1cccc(Br)c1`, the values for the maximum response (Emax) in assay [1], in assay [2] and in assay [3] were 428%, 241% and 410%, respectively.

Take `CC1(F)CN(C(=O)Cn2cnc3scc(-c4ccc(F)c(Br)c4)c3c2=O)C1`: the maximal response (Emax) in assay [1] is 1540%; in assay [2], 387%; in assay [3], 775%.

Regarding `Cc1sc2ncn(CC(=O)N3CC(C)(F)C3)c(=O)c2c1-c1cccc(OC(F)(F)F)c1`, the Emax worked out at 1380% in assay [1], 310% in assay [2] and 666% in assay [3].
